Consider one compound from PubChem BioAssay AID1347428 (National Center for Advancing Translational Sciences (NCATS), 2020).

Amino acid sequences for entries named in this document (tags omitted).
UniProt Q9GZX7, whole entry: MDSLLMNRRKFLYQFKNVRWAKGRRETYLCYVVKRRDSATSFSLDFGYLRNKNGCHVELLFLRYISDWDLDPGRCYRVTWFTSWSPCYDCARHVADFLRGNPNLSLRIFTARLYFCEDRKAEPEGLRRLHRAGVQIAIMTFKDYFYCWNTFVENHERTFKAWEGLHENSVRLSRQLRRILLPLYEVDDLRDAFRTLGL

The list shows a part of the results, in another mix than the full data. Inconclusive results are not listed. The source made the active and inactive calls. The call rests on the fitted dose curve; in most records, active means well fitted inhibition curve with a large enough effect; inconclusive means small, poorly fitted or top-dose-only effect; inactive means no such curve, though single readings can be large or run the other way.
On the % scale 0 is the no-effect control and ±100 the full control effect.

The experiment has as its target Single-stranded DNA cytosine deaminase (Homo sapiens) (UniProt Q9GZX7). As to the kind of experiment: Primary qHTS assay for inhibitors of Activation Induced Cytidine Deaminase (AID): AID signal. Further: nearly all actives have a fitted effect of over 25% in size. The following applies: AID deamination FRET fluorescence, UDG-coupled, 4 h; at 115 µM (top of the series). From the text:
Assay Provider (PI) Patricia Gearhart Ph.D.
National Institute on Aging
National Institute of Health (NIH), Bethesda, MD
Assay Provider (PI) Rahul Kohli Ph.D.
Perelman School of Medicine
University of Pennsylvania, Philadelphia, PA
Activation-Induced Deaminase (AID) is a cytosine deaminase which converts cytosine into uracil within stretches of ssDNA. The presence of uracil in DNA initiates a cascade of mutagenic DNA repair to introduce point mutations and DNA double strand breaks. Specific targeting of AID to the immunoglobulin heavy chain loci (Igh) promotes mutagenesis in the antibody variable region for somatic hypermutation (SHM) or switch regions leading to class switch recombination (CSR). […]
A FRET based analysis of cytosine deamination, was developed to identify potential inhibitors of AID catalytic activity. This screen has two signal output, Read 1 evaluates the AID inhibition response. The second readout (Read 2) evaluates UDG response and is uses as a counterscreen to exclude false positive inhibitors. […]
9a; Detection; fluorescence (Read 1: AID); EnVision (PerkinElmer) plate reader, 540 excitation and 590 emission filters
9b; Detection; fluorescence (Read 2: UDG); EnVision (PerkinElmer) plate reader, 560 excitation and 665 emission filters […]
9a; Fluorescence signal (column label AID) was read using the EnVision plate reader. […]
For the compound `N#[O+].[C-]#N.[C-]#N.[C-]#N.[C-]#N.[C-]#N.[Fe+2].[Na+].[Na+]`, the activity change, negative = inhibition was inactive: 23.6%.
